Earlier results, collected in US20240009213A1, “TREATMENT FOR VIRAL INFECTION” (priority 2020, published 2024).

Amino acid sequences for entries named in this document (tags omitted). Residues count along the entry.
UniProt P29376, 17-864: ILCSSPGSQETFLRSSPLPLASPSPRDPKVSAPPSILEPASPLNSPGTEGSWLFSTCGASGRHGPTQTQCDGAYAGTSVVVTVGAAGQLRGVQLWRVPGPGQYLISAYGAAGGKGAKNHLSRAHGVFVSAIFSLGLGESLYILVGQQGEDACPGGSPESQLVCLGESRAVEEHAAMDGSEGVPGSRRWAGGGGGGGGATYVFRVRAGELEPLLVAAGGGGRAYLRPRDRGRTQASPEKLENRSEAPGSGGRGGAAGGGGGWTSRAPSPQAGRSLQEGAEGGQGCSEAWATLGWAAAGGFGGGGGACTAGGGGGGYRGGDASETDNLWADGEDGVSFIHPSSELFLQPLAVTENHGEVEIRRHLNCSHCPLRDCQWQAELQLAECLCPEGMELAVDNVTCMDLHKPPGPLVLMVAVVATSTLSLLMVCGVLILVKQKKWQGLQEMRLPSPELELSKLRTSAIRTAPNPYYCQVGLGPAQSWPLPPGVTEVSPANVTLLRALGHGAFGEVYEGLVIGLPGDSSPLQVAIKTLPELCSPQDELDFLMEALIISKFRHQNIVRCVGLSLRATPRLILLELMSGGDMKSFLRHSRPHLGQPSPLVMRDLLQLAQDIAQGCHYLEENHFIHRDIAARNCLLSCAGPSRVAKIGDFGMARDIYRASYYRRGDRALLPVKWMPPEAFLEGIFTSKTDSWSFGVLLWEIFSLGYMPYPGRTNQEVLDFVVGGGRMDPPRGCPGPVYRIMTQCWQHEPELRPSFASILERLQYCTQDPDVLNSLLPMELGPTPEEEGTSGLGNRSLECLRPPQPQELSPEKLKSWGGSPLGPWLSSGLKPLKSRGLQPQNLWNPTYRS

Molecular target: LTK (Homo sapiens, UniProt P29376)
Conditions: previous work; cited from earlier work

C[C@H]1Oc2cc(cnc2N)-c2c(nn(C)c2C#N)CN(C)C(=O)c2ccc(F)cc21 [lorlatinib]
activity towards LTK: low activity towards LTK
